# Laboratory results as given in ChEMBL document CHEMBL1201862, “PubChem BioAssay data set” (2004).
# The list shows a part of the results. No stated cut-off is given here; in the data, active = GI50 up to about 1.1 µM and inactive = higher. Entries with a potency or affinity are not part of this list. These assays gave more results; the selection is not random. Some results for these compounds are left out of this collection, so the calls shown say nothing about other tests.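 A five-concentration, 48-hour dose response in 96-well plates underlies each endpoint, interpolated linearly between surrounding concentrations. GI50 is the concentration that inhibits growth by half.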
# System: UO-31
# Assay: NCI tumour cell line growth inhibition, 48 h
structure (smiles),measurement,value
CC/C=C\C(O)(C(=O)OC1CN2CCC1CC2)C1CCCC1 (stereo unspecified),GI50,active: 10 nM
